Test: PK parameters of cabozantinib and measured metabolites in human subjects
Assay type: in vivo
Details: plasma, oral, 140 mg/day, read-out: t1/2, apparent terminal elimination half-life (converted)

- half-life: 102 h
Compound: COc1cc2nccc(Oc3ccc(NC(=O)C4(C(=O)Nc5ccc(F)cc5)CC4)cc3)c2cc1OC [Cabozantinib, N-(4-{[6,7-bis(methyloxy)quinolin-4-yl]oxy}phenyl)-N′-(4-fluorophenyl)cyclopropane-1,1-dicarboxamide, reference compound]

Source: patent US20200163954A1 (Exelixis, Inc., priority 2014, published 2020)
